# Paper PMC7723054
# The other results are listed elsewhere or left out.
# Experiments:
# Experiment in all cases: FOREST: bead pull-down of RNA structure library v1, barcode microarray; U1A/LIN28A: 20 mM HEPES pH 7.5, 80 mM KCl, 20 mM NaCl, 10% glycerol, 2 mM DTT, 0.1 ug/uL BSA, 4 C; BG4/CIRBP/DHX36: 10 mM Tris-HCl pH 7.5, 100 mM KCl (or LiCl),; high values mean tight binding
# U1A = U1A (Homo sapiens, UniProt P09012)
# LIN28A = target: T1, LIN28A (human?, UniProt Q9H9Z2 1-209)
# T1 sequence: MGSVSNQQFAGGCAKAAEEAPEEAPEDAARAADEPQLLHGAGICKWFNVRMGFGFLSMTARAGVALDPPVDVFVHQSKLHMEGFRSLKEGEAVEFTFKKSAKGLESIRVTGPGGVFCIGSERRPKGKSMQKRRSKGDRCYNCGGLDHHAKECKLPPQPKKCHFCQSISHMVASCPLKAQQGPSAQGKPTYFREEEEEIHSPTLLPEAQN
# CIRBP = target: T2, CIRBP (Homo sapiens, UniProt Q14011 1-172)
# T2 sequence: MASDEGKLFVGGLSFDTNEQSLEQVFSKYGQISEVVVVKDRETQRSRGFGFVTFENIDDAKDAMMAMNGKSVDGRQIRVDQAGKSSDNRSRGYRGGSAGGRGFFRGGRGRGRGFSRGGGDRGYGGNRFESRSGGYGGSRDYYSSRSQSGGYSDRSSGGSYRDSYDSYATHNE
# DHX36 = target: T3, DHX36 (Homo sapiens, UniProt Q9H2U1 1-1008)
# T3 sequence: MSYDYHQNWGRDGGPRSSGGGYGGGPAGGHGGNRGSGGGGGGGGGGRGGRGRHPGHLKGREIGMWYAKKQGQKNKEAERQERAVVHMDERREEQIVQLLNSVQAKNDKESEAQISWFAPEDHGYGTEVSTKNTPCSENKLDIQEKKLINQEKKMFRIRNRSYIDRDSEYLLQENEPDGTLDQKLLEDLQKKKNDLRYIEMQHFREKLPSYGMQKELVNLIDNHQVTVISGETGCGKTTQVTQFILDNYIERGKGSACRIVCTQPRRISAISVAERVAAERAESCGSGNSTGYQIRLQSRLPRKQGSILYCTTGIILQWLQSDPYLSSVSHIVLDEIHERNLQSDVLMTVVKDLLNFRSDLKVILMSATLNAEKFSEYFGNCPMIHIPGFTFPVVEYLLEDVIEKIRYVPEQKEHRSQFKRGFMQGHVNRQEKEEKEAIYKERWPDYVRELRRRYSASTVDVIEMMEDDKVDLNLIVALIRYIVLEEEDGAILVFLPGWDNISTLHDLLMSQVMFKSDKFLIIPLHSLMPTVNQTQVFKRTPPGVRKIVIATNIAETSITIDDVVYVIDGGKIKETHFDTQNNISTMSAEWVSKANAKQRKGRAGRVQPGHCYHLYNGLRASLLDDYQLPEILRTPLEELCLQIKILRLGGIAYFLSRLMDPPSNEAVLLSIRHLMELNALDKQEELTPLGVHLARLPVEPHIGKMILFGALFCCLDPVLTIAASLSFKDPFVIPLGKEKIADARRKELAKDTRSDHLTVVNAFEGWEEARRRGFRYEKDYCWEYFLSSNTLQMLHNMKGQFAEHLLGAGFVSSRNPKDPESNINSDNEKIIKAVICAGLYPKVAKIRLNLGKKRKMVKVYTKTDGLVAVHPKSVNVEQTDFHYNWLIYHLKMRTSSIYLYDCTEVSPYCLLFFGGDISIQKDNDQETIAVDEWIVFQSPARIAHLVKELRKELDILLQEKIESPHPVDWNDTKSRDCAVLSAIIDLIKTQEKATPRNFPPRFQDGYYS
Binder,binding signal (U1A),binding signal (LIN28A),binding signal (CIRBP),binding signal (DHX36)
hsa-mir-2355 (structured_RNA) RNA: GGGAACUAUACAACCCUGUUUCGGUUACGGUGUACGAAGUUUCAGCACAAUAUGCUAUUAUAAUCGUAUGGCAUUGUGCUGAAGCUUCGUGCAC,0.23 z-score,0.503 z-score,0.736 z-score,0.607 z-score
NEAT1_ParasoR_ID2 (structured_RNA) RNA: GGGCAGGGCUUACACGAACGGCUGUAAAGGUGUACGAAGUUUCAGCCAUAUAUGAAACUUAAGUUUCUGCUAGUUGCCAUCUUUGAUCUAUCAUGUAUGGCUGAAGCUUCGUGCAC,0.229 z-score,-0.427 z-score,-0.586 z-score,0.639 z-score
hsa-mir-619 (structured_RNA) RNA: GGGACGAGUAGUCUCACAAUCGCCCGAUGGUGUACGAAGUUUCAGCAGCCACUGCGGUCGACCAUGACCUGGAGCUGAAGCUUCGUGCAC,0.228 z-score,-1.06 z-score,0.0336 z-score,-0.0708 z-score
hsa-mir-129-1 (structured_RNA) RNA: GGGAAGGAGGUCUCACCGAUCCGCAUUAGGUGUACGAAGUUUCAGCGCUUGCUGUUCCUCUCAACAGUAGUCAGGAAGCGCUGAAGCUUCGUGCAC,0.227 z-score,-0.168 z-score,0.879 z-score,0.587 z-score
hsa-mir-671 (structured_RNA) RNA: GGGACAUCUACACGACACCUUGCUACGGGGUGUACGAAGUUUCAGCUGGAGGUGAUGGAUGUUUUCCUCCGGCUGAAGCUUCGUGCAC,1.87 z-score,-0.366 z-score,-0.521 z-score,-0.708 z-score
hsa-mir-548g (structured_RNA) RNA: GGGAACUUCCCUAACCGUGAACUAUCUGGGUGUACGAAGUUUCAGCUUUUUGCAUUACGUUCUAUGGCAAAAGCUGAAGCUUCGUGCAC,0.226 z-score,-0.242 z-score,-0.654 z-score,-0.0983 z-score
hsa-mir-3151 (structured_RNA) RNA: GGGAACCUUCGCGCGAACUGCUCAUGUUGGUGUACGAAGUUUCAGCCAGGUGCCUCAAAGGGCAUCCCACCUGGCUGAAGCUUCGUGCAC,0.224 z-score,0.0359 z-score,-0.886 z-score,-0.105 z-score
hsa-mir-6856 (structured_RNA) RNA: GGGACCUUAGAUUACAGAGGUAAGAAGGGGUGUACGAAGUUUCAGCUGUGGCAGUGGCAGAGGUCGCUACAGCUGAAGCUUCGUGCAC,0.223 z-score,0.888 z-score,0.501 z-score,0.268 z-score
hsa-mir-7851 (structured_RNA) RNA: GGGAAGGUCCCCUCCAGCAUCGAGUUUAGGUGUACGAAGUUUCAGCAGUAGCUGGGAAUACAGGUGUGUGCCACCAUGCCUCUACAAGCUACCGCUGAAGCUUCGUGCAC,0.223 z-score,1.49 z-score,-0.0289 z-score,-0.201 z-score
hsa-mir-4783 (structured_RNA) RNA: GGGAAUAACCCAUAGAACGAGACGGGAUGGUGUACGAAGUUUCAGCCGGGCUGAUUGCGCUAACAGUGGCCCCGCUGAAGCUUCGUGCAC,0.219 z-score,-0.323 z-score,0.174 z-score,-0.362 z-score
hsa-mir-4503 (structured_RNA) RNA: GGGAAGGAGAACGUUUGACUAGAGAAUAGGUGUACGAAGUUUCAGCUUUACAUAUAAAUUUCUAUUUGUGCUGAAGCUUCGUGCAC,0.212 z-score,-0.628 z-score,1.26 z-score,-0.371 z-score
hsa-mir-4299 (structured_RNA) RNA: GGGAAUUACAUCUCGGGUGCGUCCAAAUGGUGUACGAAGUUUCAGCGUGUUUUCUCCUUUAGAGAGAGCUGGCUGAAGCUUCGUGCAC,0.212 z-score,-1.1 z-score,-0.233 z-score,-1.13 z-score
hsa-mir-221 (structured_RNA) RNA: GGGACACUGGGAUGCCAGUUAGGCCUUAGGUGUACGAAGUUUCAGCAUUUCUGUGUUCGUUAGGCAACAGGCUGAAGCUUCGUGCAC,0.208 z-score,-0.188 z-score,-0.187 z-score,0.129 z-score
hsa-mir-584 (structured_RNA) RNA: GGGAAAGUGACGAGAGCGUUAUGUCCUCGGUGUACGAAGUUUCAGCCUGAGGAAUUUGCUGGGAUAUGUCAGGCUGAAGCUUCGUGCAC,0.207 z-score,0.713 z-score,-1.34 z-score,-0.799 z-score
hsa-mir-548ae-1 (structured_RNA) RNA: GGGAGACGCCUUUAAAAGUGAAUCGAAUGGUGUACGAAGUUUCAGCUUUGCCAUUAUAAUGGCAAAGCUGAAGCUUCGUGCAC,0.206 z-score,-1.75 z-score,-0.301 z-score,-0.442 z-score
hsa-mir-3974 (structured_RNA) RNA: GGGAAACGUCUUGGCAAGCGACGUCUCCGGUGUACGAAGUUUCAGCAUGCACCCAUAUUUUAAUAUCAAACUAUGACAAAUUGCUGAAGCUUCGUGCAC,1.86 z-score,0.666 z-score,-1.02 z-score,-0.557 z-score
PARIS_ID27 (structured_RNA) RNA: GGGAACUUGAGUUGAAGAGCCUAACCGUGGUGUACGAAGUUUCAGCCAUGUCACCCAAAGGGGUAAUUGUCCUACUGGUGGUCUGUAAGAUGAGUUAGGGUGACUUGGCUGAAGCUUCGUGCAC,0.204 z-score,1.65 z-score,0.00652 z-score,0.621 z-score
PARIS_ID33 (structured_RNA) RNA: GGGAACAGCCCGUAGUGGUAAAUUUGAGGGUGUACGAAGUUUCAGCCUGGUCUUGUAAUUAAAAUUCAAACACUAUAGAAAAAGGCCAUGUAGAAGAUAAAAGUUCCUCUAUAAUCCCGGGCUGAAGCUUCGUGCAC,0.202 z-score,0.153 z-score,0.855 z-score,0.626 z-score
hsa-mir-30c-1 (structured_RNA) RNA: GGGACUCUAGCCUAUUUCGUCUAGCACGGGUGUACGAAGUUUCAGCUCAGCUGUGAGCUCAAGGUGGCUGGGCUGAAGCUUCGUGCAC,0.201 z-score,-0.346 z-score,-0.281 z-score,-0.85 z-score
hsa-mir-342 (structured_RNA) RNA: GGGAAAAGAAUCAAUUCAGCGGUGACCUGGUGUACGAAGUUUCAGCUUGAGGGACAUGGUUAAUGGAAUUGUCUCAGCUGAAGCUUCGUGCAC,0.198 z-score,1.46 z-score,1.76 z-score,0.473 z-score
hsa-mir-3118-2_3118-3_3118-4 (structured_RNA) RNA: GGGAAUCGUGCGAAGCAGAUUAACCCACGGUGUACGAAGUUUCAGCCACACACAAUCACCGUGUGGCUGAAGCUUCGUGCAC,0.197 z-score,-1.17 z-score,-0.951 z-score,-1.18 z-score
hsa-mir-936 (structured_RNA) RNA: GGGAAGAAGCGCCAUUGCUAGUCAUGCUGGUGUACGAAGUUUCAGCGCAGAAAUCACUCCAGGAGCAACUGAGCUGAAGCUUCGUGCAC,0.196 z-score,0.39 z-score,0.264 z-score,0.0134 z-score
